“Also recorded” adds a separate entry of the source.
Legend:
[1] = biological target: T1, α-chymotrypsin (Bos taurus, UniProt P00766); assay type: biochemical, bovine
T1 construct: purchased Sigma (St. Louis, Mo.); host or cells: bovine pancreas
Method: (§1) The substrates for α-chymotrypsin (succinyl-ala-ala-pro-phe-p-nitroanilide) and β-trypsin (N-benzoyl-L-arginine ethyl ester, BAEE) were also purchased from Sigma. The elastase substrate used (elastase substrate 1, MeOSuc-Ala-Ala-Pro-Val-pNA) was purchased from Calbiochem (San Diego, Calif.). Substrates were diluted from 10 mM DMSO stock solutions, and all reactions were performed in 50 mM TRIS buffer, pH 7.0, 25° C. For α-chymotrypsin, 200 μM of substrate was used; the reactions were initiated by addition of 10 μL of a 0.1 mg/ml enzyme stock solution and monitored at 410 nm. For β-trypsin, 200 μM of BAEE was used, the reactions were initiated by the addition of 5 μL of a 0.2 mg/ml enzyme stock solution, and monitored at 260 nm. For elastase, 640 μM of elastase substrate was used, the reactions were initiated by the addition of 30 μL of a 0.2 mg/mL enzyme stock solution, and monitored at 385 nm. Initial rate fits to the absorbance data for the first 150 seconds of each reaction were used to determine reaction velocities.

Chains of the proteins cited; added tags and fusions are not shown. Residues count along the entry.
UniProt P00760, 24-246: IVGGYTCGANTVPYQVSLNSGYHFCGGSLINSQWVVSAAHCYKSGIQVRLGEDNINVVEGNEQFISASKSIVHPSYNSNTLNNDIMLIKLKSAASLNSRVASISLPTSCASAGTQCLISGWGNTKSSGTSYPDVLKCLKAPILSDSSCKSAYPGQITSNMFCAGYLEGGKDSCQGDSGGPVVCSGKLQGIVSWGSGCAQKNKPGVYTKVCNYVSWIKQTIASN
UniProt P00772, 27-266: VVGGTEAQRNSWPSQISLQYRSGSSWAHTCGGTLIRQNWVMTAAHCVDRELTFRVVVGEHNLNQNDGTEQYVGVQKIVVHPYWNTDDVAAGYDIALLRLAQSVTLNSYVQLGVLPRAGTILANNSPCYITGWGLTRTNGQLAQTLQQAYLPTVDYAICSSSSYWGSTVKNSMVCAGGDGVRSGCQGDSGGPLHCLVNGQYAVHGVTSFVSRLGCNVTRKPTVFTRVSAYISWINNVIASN

[2] = biological target: T2, β-trypsin (Bos taurus, UniProt P00760); assay type: biochemical, bovine
T2 construct: β-trypsin (bovine pancreatic); purchased Sigma (St. Louis, Mo.); host or cells: bovine pancreas
Method: as §1

[3] = biological target: T3, elastase (Sus scrofa, UniProt P00772); assay: elastase selectivity counter-screen; assay type: biochemical, porcine
T3 construct: purchased Sigma (St. Louis, Mo.); host or cells: porcine pancreas
Method: as §1

SMILES: O=C(O)c1sccc1S(=O)(=O)Nc1ccc(Cl)cc1 [Compound 1, 3-[(4-chloroanilino)sulfonyl]thiophene-2-carboxylic acid]
- selectivity for AmpC over chymotrypsin [1]: at least sixty-fold; also recorded: greater than fifty-fold
- selectivity for AmpC over trypsin [2]: at least two hundred-fold
- selectivity for AmpC over elastase [3]: at least two hundred-fold

Source: patent US7541381B2, “Non-covalent inhibitors of AmpC β-lactamase” (Northwestern University, priority 2002, dated 2009)
